In patent US20110274692A1 (published 2011):

Tests used:
IL-1β = IL-1β (human, UniProt P01584 117-269); assay: cell-based or functional assay
IL-1β/XOMA 052 complex = IL-1β/XOMA 052 complex (human, UniProt P01584 117-269); assay: KinExA equilibrium solution affinity, receptor titrated into IL-1β with 100-fold molar excess of XOMA 052

increase of the EC50 of the IL-1β dose response curve, MRC-5 cell IL-6 release assay, relative to isotype control antibody (IL-1β): ≤ 60 fold
B1: XOMA 052 (antibody, V domains shown)
VH: QVQLQESGPGLVKPSQTLSLTCSFSGFSLSTSGMGVGWIRQPSGKGLEWLAHIWWDGDESYNPSLKSRLTISKDTSKNQVSLKITSVTAADTAVYFCARNRYDPPWFVDWGQGTLVTVSS
VL: DIQMTQSTSSLSASVGDRVTITCRASQDISNYLSWYQQKPGKAVKLLIYYTSKLHSGVPSRFSGSGSGTDYTLTISSLQQEDFATYFCLQGKMLPWTFGQGTKLEIK

Kd (IL-1β/XOMA 052 complex): 2 nM
B2: IL-1 sRII (receptor, UniProt P27930 14-343, looked up)
chain: FTLQPAAHTGAARSCRFRGRHYKREFRLEGEPVALRCPQVPYWLWASVSPRINLTWHKNDSARTVPGEEETRMWAQDGALWLLPALQEDSGTYVCTTRNASYCDKMSIELRVFENTDAFLPFISYPQILTLSTSGVLVCPDLSEFTRDKTDVKIQWYKDSLLLDKDNEKFLSVRGTTHLLVHDVALEDAGYYRCVLTFAHEGQQYNITRSIELRIKKKKEETIPVIISPLKTISASLGSRLTIPCKVFLGTGTPLTTMLWWTANDTHIESAYPGGRVTEGPRQEYSENNENYIEVPLIFDPVTREDLHMDFKCVVHNTLSFQTLRTTVKE
notes: extracellular domain; bought; also called IL-1 sR11; IL-1RII

Kd (IL-1β/XOMA 052 complex): 10 nM
B3: IL-1 sRI (receptor, UniProt P14778 18-336, looked up)
chain: LEADKCKEREEKIILVSSANEIDVRPCPLNPNEHKGTITWYKDDSKTPVSTEQASRIHQHKEKLWFVPAKVEDSGHYYCVVRNSSYCLRIKISAKFVENEPNLCYNAQAIFKQKLPVAGDGGLVCPYMEFFKNENNELPKLQWYKDCKPLLLDNIHFSGVKDRLIVMNVAEKHRGNYTCHASYTYLGKQYPITRVIEFITLEENKPTRPVIVSPANETMEVDLGSQIQLICNVTGQLSDIAYWKWNGSVIDEDDPVLGEDYYSVENPANKRRSTLITVLNISEIESRFYKHPFTCFAKNTHGIDAAYIQLIYPVTNFQK
notes: extracellular domain; bought; also called IL-IsRI; soluble IL-1 receptor type I

One block for each binder: values may come before it.
